PubChem BioAssay (NCI)
Some tests of the compounds listed are not included; inactive here does not mean inactive elsewhere.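 48-hour exposure; five concentrations; linearly interpolated endpoints. At the GI50, growth is halved. Definition used: TGI = concentration required for complete inhibition of growth.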

Assays:
Experiment in all cases: NCI tumour cell line growth inhibition, 48 h
CAKI-1 renal = tested on: CAKI-1 renal
TK-10 renal = tested on: TK-10 renal
HOP-62 NSCLC = tested on: HOP-62 NSCLC
HCT-116 colon = tested on: HCT-116 colon
MOLT-4 leukemia = tested on: MOLT-4 leukemia
RXF 393 renal = tested on: RXF 393 renal
NCI-H322M lung = tested on: NCI-H322M lung
NCI-H226 lung = tested on: NCI-H226 lung
COLO 205 colon = tested on: COLO 205 colon
PC-3 prostate = tested on: PC-3 prostate
HOP-92 NSCLC = tested on: HOP-92 NSCLC
SNB-75 CNS = tested on: SNB-75 CNS
CCRF-CEM leukemia = tested on: CCRF-CEM leukemia
KM12 colon = tested on: KM12 colon
A549 NSCLC = tested on: A549 NSCLC
NCI-H23 lung = tested on: NCI-H23 lung
T-47D breast = tested on: T-47D breast
OVCAR-4 ovarian = tested on: OVCAR-4 ovarian
OVCAR-3 ovarian = tested on: OVCAR-3 ovarian
LOX IMVI melanoma = tested on: LOX IMVI melanoma
SK-MEL-5 melanoma = tested on: SK-MEL-5 melanoma
NCI-H522 lung = tested on: NCI-H522 lung
HCC-2998 colon = tested on: HCC-2998 colon
EKVX NSCLC = tested on: EKVX NSCLC
SK-MEL-2 melanoma = tested on: SK-MEL-2 melanoma
MDA-MB-435 = tested on: MDA-MB-435
MALME-3M melanoma = tested on: MALME-3M melanoma
SF-268 CNS = tested on: SF-268 CNS
SK-MEL-28 melanoma = tested on: SK-MEL-28 melanoma

SMILES: C/C=C\C(O)(C(=O)OC1CN2CCC1CC2)C1CCCC1 (configuration not stated)
- GI50 (CAKI-1 renal): > 100 µM
- TGI (CAKI-1 renal): > 100 µM
- GI50 (TK-10 renal): > 100 µM
- TGI (TK-10 renal): > 100 µM
- GI50 (HOP-62 NSCLC): > 100 µM
- TGI (HOP-62 NSCLC): > 100 µM
- GI50 (HCT-116 colon): > 100 µM
- TGI (HCT-116 colon): > 100 µM
- GI50 (MOLT-4 leukemia): > 100 µM
- TGI (MOLT-4 leukemia): > 100 µM
- GI50 (RXF 393 renal): > 100 µM
- TGI (RXF 393 renal): > 100 µM
- GI50 (NCI-H322M lung): > 100 µM
- TGI (NCI-H322M lung): > 100 µM
- GI50 (NCI-H226 lung): > 100 µM
- TGI (NCI-H226 lung): > 100 µM
- GI50 (COLO 205 colon): > 100 µM
- TGI (COLO 205 colon): > 100 µM
- GI50 (PC-3 prostate): > 100 µM
- TGI (PC-3 prostate): > 100 µM
- GI50 (HOP-92 NSCLC): 49.1 µM
- TGI (HOP-92 NSCLC): > 100 µM
- GI50 (SNB-75 CNS): 77.5 µM
- TGI (SNB-75 CNS): > 100 µM
- GI50 (CCRF-CEM leukemia): > 100 µM
- TGI (CCRF-CEM leukemia): > 100 µM
- GI50 (KM12 colon): > 100 µM
- TGI (KM12 colon): > 100 µM
- GI50 (A549 NSCLC): > 100 µM
- TGI (A549 NSCLC): > 100 µM
- GI50 (NCI-H23 lung): > 100 µM
- TGI (NCI-H23 lung): > 100 µM
- GI50 (T-47D breast): > 100 µM
- TGI (T-47D breast): > 100 µM
- GI50 (OVCAR-4 ovarian): > 100 µM
- TGI (OVCAR-4 ovarian): > 100 µM
- GI50 (OVCAR-3 ovarian): > 100 µM
- TGI (OVCAR-3 ovarian): > 100 µM
- GI50 (LOX IMVI melanoma): > 100 µM
- TGI (LOX IMVI melanoma): > 100 µM
- GI50 (SK-MEL-5 melanoma): > 100 µM
- TGI (SK-MEL-5 melanoma): > 100 µM
- GI50 (NCI-H522 lung): > 100 µM
- TGI (NCI-H522 lung): > 100 µM
- GI50 (HCC-2998 colon): > 100 µM
- TGI (HCC-2998 colon): > 100 µM
- GI50 (EKVX NSCLC): > 100 µM
- TGI (EKVX NSCLC): > 100 µM
- GI50 (SK-MEL-2 melanoma): > 100 µM
- TGI (SK-MEL-2 melanoma): > 100 µM
- GI50 (MDA-MB-435): > 100 µM
- TGI (MDA-MB-435): > 100 µM
- GI50 (MALME-3M melanoma): > 100 µM
- TGI (MALME-3M melanoma): > 100 µM
- GI50 (SF-268 CNS): > 100 µM
- TGI (SF-268 CNS): > 100 µM
- GI50 (SK-MEL-28 melanoma): > 100 µM
